# Cyclic peptide permeability, from CycPeptMPDB

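Conditions beyond the assay type are not listed; see the original paper. Other peptides of the study may be missing here. Entries at the database's floor value (log10 P of -10) are not listed.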

PAMPA is the parallel artificial membrane permeability assay, which has no cells and reads passive diffusion. P is given in units of 10^-6 cm/s (from log10 values with two decimals); larger means faster passage.

| compound | PAMPA (10^-6 cm/s) |
|---|---|
| CCCN1CC(=O)N[C@H](CC(C)C)C(=O)N[C@@H](CC(C)C)C(=O)N2CCC[C@@H]2C(=O)N(C)[C@@H](CC(C)C)C(=O)N[C@@H](Cc2ccccc2)C(=O)N2CCC[C@H]2C1=O | 8.5 |
| CC(C)C[C@@H]1C(=O)N[C@@H](Cc2ccccc2)CC(=O)N2CCC[C@H]2C(=O)N(C)[C@@H](CC(C)C)C(=O)N[C@@H](Cc2ccccc2)C(=O)N(C)[C@H](C)C(=O)N1C | 6 |
| CC(C)C[C@@H]1NC(=O)[C@@H](CC(C)C)NC(=O)[C@@H](C)N(C)C(=O)[C@H](Cc2ccccc2)NC(=O)[C@@H](CC(C)C)N(C)C(=O)[C@H]2CCCN2C1=O | 6.6 |
| CCCN1CC(=O)N[C@H](CC(C)C)C(=O)N(C)[C@H](CC(C)C)C(=O)N2CCC[C@@H]2C(=O)N[C@@H](CC(C)C)C(=O)N[C@@H](Cc2ccccc2)C(=O)N2CCC[C@H]2C1=O | 0.85 |
| CC(C)C[C@H]1NC(=O)CN(Cc2ccccc2)C(=O)[C@H](C)N(C)C(=O)[C@H]2CCCN2C(=O)[C@H](Cc2ccccc2)NC(=O)CN(Cc2ccccc2)C(=O)[C@H]2CCCN2C1=O | 1.6 |
| CCCN1CC(=O)N(C)[C@@H](CC(C)C)C(=O)N(C)[C@H](CC(C)C)C(=O)N2CCC[C@H]2C(=O)N[C@@H](CC(C)C)C(=O)N[C@@H](Cc2ccccc2)C(=O)N2CCC[C@@H]2C1=O | 1.1 |
| CC(C)C[C@@H]1NC(=O)[C@@H](CC(C)C)N(C)C(=O)[C@@H](C)NC(=O)[C@H](Cc2ccccc2)NC(=O)CN(Cc2ccccc2)C(=O)[C@H]2CCCN2C1=O | 6.6 |
| CC(C)C[C@@H]1NC(=O)[C@H]2CCCN2C(=O)[C@H](CC(C)C)N(C)C(=O)[C@@H](CC(C)C)NC(=O)[C@H](C)N(C)C(=O)[C@@H]2CCCN2C(=O)[C@H](Cc2ccccc2)NC1=O | 0.79 |
| CC(C)C[C@H]1NC(=O)[C@@H]2CCCN2C(=O)[C@@H](CC(C)C)NC(=O)CN(Cc2ccccc2)C(=O)[C@H](C)NC(=O)[C@H](Cc2ccccc2)NC1=O | 0.37 |
| CC(C)C[C@H]1NC(=O)[C@H]2CCCN2C(=O)[C@H](CC(C)C)N(C)C(=O)[C@@H](CC(C)C)NC(=O)C[C@H](Cc2ccccc2)NC(=O)[C@@H]2CCCN2C(=O)[C@H](Cc2ccccc2)NC1=O | 2.6 |
| CCCN1CC(=O)N(C)[C@@H](CC(C)C)C(=O)N[C@@H](CC(C)C)C(=O)N2CCC[C@@H]2C(=O)N(C)[C@H](CC(C)C)C(=O)N[C@@H](Cc2ccccc2)C(=O)N2CCC[C@@H]2C1=O | 6.5 |
| CC(C)C[C@@H]1C(=O)N[C@@H](Cc2ccccc2)CC(=O)N2CCC[C@@H]2C(=O)N(C)[C@@H](CC(C)C)C(=O)N[C@@H](Cc2ccccc2)C(=O)N2CCC[C@H]2C(=O)N[C@@H](C)C(=O)N1C | 0.59 |
| CC(C)C[C@@H]1C(=O)N[C@H](CC(C)C)C(=O)N2CCC[C@@H]2C(=O)N(C)[C@@H](CC(C)C)C(=O)N[C@@H](Cc2ccccc2)C(=O)N[C@H](C)C(=O)N1C | 5 |
| CC(C)C[C@@H]1NC(=O)[C@H]2CCCN2C(=O)[C@@H](CC(C)C)N(C)C(=O)[C@H](CC(C)C)NC(=O)[C@@H](C)N(C)C(=O)[C@@H]2CCCN2C(=O)[C@H](Cc2ccccc2)NC1=O | 3.5 |
| CC(C)C[C@@H]1NC(=O)[C@@H](C)N(C)C(=O)[C@@H]2CCCN2C(=O)[C@H](Cc2ccccc2)NC(=O)[C@@H](CC(C)C)NC(=O)[C@H]2CCCN2C(=O)[C@@H](CC(C)C)N(C)C1=O | 3.2 |
| CC(C)C[C@@H]1NC(=O)[C@@H](C)N(C)C(=O)[C@H](Cc2ccccc2)NC(=O)CN(Cc2ccccc2)C(=O)[C@@H]2CCCN2C(=O)[C@H](CC(C)C)N(C)C1=O | 8.5 |
| CC(C)C[C@@H]1NC(=O)[C@H](C)NC(=O)[C@@H]2CCCN2C(=O)[C@H](Cc2ccccc2)NC(=O)[C@@H](CC(C)C)N(C)C(=O)[C@@H]2CCCN2C(=O)CN(Cc2ccccc2)C1=O | 1.1 |
| CC(C)C[C@H]1NC(=O)[C@@H]2CCCN2C(=O)CN(Cc2ccccc2)C(=O)[C@@H](CC(C)C)NC(=O)C[C@H](Cc2ccccc2)NC(=O)[C@H](Cc2ccccc2)NC1=O | 2 |
| CC(C)C[C@@H]1C(=O)N[C@@H](Cc2ccccc2)CC(=O)N2CCC[C@H]2C(=O)N[C@H](CC(C)C)C(=O)N[C@@H](Cc2ccccc2)C(=O)N2CCC[C@@H]2C(=O)N[C@@H](C)C(=O)N1C | 0.46 |

A selection of 3 entries from above:

{"smiles": "CC(C)C[C@@H]1C(=O)N[C@@H](Cc2ccccc2)CC(=O)N2CCC[C@@H]2C(=O)N(C)[C@@H](CC(C)C)C(=O)N[C@@H](Cc2ccccc2)C(=O)N2CCC[C@H]2C(=O)N[C@@H](C)C(=O)N1C", "PAMPA (10^-6 cm/s)": "0.59"}
{"smiles": "CC(C)C[C@H]1NC(=O)[C@@H]2CCCN2C(=O)[C@@H](CC(C)C)NC(=O)CN(Cc2ccccc2)C(=O)[C@H](C)NC(=O)[C@H](Cc2ccccc2)NC1=O", "PAMPA (10^-6 cm/s)": "0.37"}
{"smiles": "CC(C)C[C@@H]1NC(=O)[C@@H](C)N(C)C(=O)[C@@H]2CCCN2C(=O)[C@H](Cc2ccccc2)NC(=O)[C@@H](CC(C)C)NC(=O)[C@H]2CCCN2C(=O)[C@@H](CC(C)C)N(C)C1=O", "PAMPA (10^-6 cm/s)": "3.2"}

Collected by the curators of CycPeptMPDB (Li et al. 2023) from Townsend et al. 2020, doi:10.26434/chemrxiv.13335941.v1.